The record followed here is patent US20250304643A1, “PEPTIDE DUAL AGONISTS OF GIPR AND GLP2R” (BAINAN BIOTECH APS, priority 2021, published 2025).

Sequences of proteins named here, by UniProt entry; tags and fusion partners are left off. Residues count along the entry.
UniProt P43220, 24-463: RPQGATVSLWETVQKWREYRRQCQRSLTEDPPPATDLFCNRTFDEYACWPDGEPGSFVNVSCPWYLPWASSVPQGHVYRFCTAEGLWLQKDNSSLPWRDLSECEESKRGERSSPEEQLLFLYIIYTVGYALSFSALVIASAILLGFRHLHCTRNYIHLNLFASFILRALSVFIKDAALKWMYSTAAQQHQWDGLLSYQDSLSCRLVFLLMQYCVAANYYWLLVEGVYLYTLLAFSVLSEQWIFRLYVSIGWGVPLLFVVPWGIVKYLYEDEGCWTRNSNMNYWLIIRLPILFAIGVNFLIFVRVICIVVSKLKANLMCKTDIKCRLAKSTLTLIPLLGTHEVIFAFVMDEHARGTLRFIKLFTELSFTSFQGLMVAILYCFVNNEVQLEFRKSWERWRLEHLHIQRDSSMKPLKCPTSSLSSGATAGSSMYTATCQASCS

Like-named read-outs stand apart in the source and are kept apart here.

Broadly, the EC50 is the concentration giving half of the maximal effect.

Assay type in all cases: cell-based
Assay [1] deals with T1, human GLP-1R (Homo sapiens, UniProt P43220).
T1 construct: host or cells: COS-7
The assay is described as follows: HitHunter cAMP assay in transiently transfected COS-7 cells, human GLP-1R. Here is the method:
(§1) The next day the assay was initiated by washing with HEPES buffered saline (HBS) and followed by an incubation step with assay buffer (HBS added 1 mM isobutyl-1-methylxanthine (IBMX)) for 30 min at 37° C. The ligands were then added and incubated for an additional 30 min at 37° C. After ligand incubation, the HitHunter® CAMP assay (Eurofins DiscoverX, Fremont, […] USA) was carried out according to the manufacturer's instructions. Luminescence was measured by PerkinElmer™ EnVision 2014 Multilabel Reader (PerkinElmer, Waltham, MA). The potencies (EC50 values) were determined by nonlinear regression using GraphPad Prism 9 (San Diego, California, USA). Sigmoid curves were fitted logistically. The efficacies (Emax values) were determined by normalization to the highest concentration applied of the endogenous ligand for each receptor.

Assay [2] has as its target T2, human GLP-2R (Homo sapiens, UniProt O95838).
T2 construct: host or cells: COS-7
T2 sequence (O95838 1-553): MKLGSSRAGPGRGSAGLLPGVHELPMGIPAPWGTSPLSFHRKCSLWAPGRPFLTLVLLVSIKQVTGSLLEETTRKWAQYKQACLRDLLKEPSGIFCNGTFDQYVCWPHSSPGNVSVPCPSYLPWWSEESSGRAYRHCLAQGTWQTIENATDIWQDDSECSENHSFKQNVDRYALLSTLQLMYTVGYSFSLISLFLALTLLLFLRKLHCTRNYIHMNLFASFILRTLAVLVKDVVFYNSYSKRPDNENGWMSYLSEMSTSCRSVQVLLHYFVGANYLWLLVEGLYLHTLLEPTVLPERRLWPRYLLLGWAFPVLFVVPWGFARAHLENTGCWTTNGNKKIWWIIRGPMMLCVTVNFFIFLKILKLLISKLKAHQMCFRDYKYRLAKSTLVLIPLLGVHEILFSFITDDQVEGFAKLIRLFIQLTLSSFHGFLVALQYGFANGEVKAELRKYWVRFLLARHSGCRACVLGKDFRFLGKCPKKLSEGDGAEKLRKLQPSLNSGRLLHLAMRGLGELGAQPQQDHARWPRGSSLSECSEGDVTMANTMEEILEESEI
The assay is described as follows: HitHunter cAMP assay in transiently transfected COS-7 cells, human GLP-2R.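 Further: cells kept 30 min at 37 °C in buffer with 1 mM IBMX, then given ligand for another 30 min at 37 °C before cAMP readout.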 In general terms: Cyclic AMP is a second messenger, typically raised through Gs and lowered through Gi signalling.

The target of assay [3] is T3, human GIPR (Homo sapiens, UniProt P48546).
T3 sequence (P48546 22-466): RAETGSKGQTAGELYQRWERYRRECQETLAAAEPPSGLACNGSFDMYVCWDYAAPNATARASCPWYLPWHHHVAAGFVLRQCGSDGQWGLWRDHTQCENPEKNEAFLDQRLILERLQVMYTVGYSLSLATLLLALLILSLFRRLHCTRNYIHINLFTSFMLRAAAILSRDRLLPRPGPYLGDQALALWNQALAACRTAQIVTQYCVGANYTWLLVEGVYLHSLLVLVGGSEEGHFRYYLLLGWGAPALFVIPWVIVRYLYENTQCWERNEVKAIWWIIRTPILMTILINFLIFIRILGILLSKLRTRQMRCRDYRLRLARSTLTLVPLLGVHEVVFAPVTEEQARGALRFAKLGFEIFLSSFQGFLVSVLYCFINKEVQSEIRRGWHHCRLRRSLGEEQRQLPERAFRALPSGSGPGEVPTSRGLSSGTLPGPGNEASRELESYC
The arrangement: host or cells: COS-7. How it is done: as §1

The mark [4] stands for this setting: cAMP, COS-7 cells expressing human GLP-1R, Table 3.
Where [5] appears, read: cAMP, COS-7 cells expressing human GLP-2R, Table 2.
Setting [6] is: cAMP, COS-7 cells expressing human GIPR, Table 2.
[7] abbreviates: comparative peptides, human GLP-1R, Table C.
Where [8] appears, read: comparative peptides, human GLP-2R, Table B.
[9] abbreviates: comparative peptides, human GIPR, Table 4A.

“(C16)HADGTFISDYSTILDNLAARDFINWLIQTKIT [Compound no. 2]”: the “logEC50 GLP-1R” value in assay [1] (setting [4]) was “no activation”. Also, in assay [2] (setting [5]), a half-maximal response (EC50) required 50.1 nM and the “logEC50 GLP-2R” value came to 7.3. Further, in assay [3] (setting [6]), the EC50 was found to be 0.464 nM and the “PEC50 GIPR” value is listed as 9.3.
In the case of “H-Aib-DG-K(γGlu- γGlu-C16)-FISDYST-Aib-LDNLAARDFINWLIQTKITK-OH [Compound no. 28]”, in assay [2] (setting [5]), the EC50 stood at 1.6 nM and the “logEC50 GLP-2R” value is 8.8. In assay [3] (setting [6]), the EC50 was found to be 1.58 nM and the “PEC50 GIPR” value stood at 8.8.
“(C16)HADGTFISDYSTILDNLAARDFINWLIQTKITD [Compound no. 4]”: the “logEC50 GLP-1R” value in assay [1] (setting [4]) was “no activation”. For the same substance, in assay [2] (setting [5]), a half-maximal effect (EC50) was put at 27.1 nM and the “logEC50 GLP-2R” value was determined as 7.6. Besides, in assay [3] (setting [6]), the concentration for a half-maximal effect (EC50) is 3.69 nM and the “PEC50 GIPR” value came to 8.4.
With “(C16-diacid)H-Aib-EGTFISDYST-Aib-LDKLAARDFINWLIQTKITK-OH [Compound no. 21]”, in assay [2] (setting [5]), the EC50 was 7.9 nM and the “logEC50 GLP-2R” value was determined as 8.1. Also, in assay [3] (setting [6]), the EC50 turned out to be 0.631 nM and the “PEC50 GIPR” value came to 9.2.
Regarding “HADGTFISDYSTAibLDNLAARDFINWLIQTKGKKK(γGlu-C18-diacid) [Compound no. 61, reference compound]”, in assay [1] (setting [7]), the midpoint of the response, the EC50, lay at 7.08 nM and the “logEC50 GLP-1R” value came to 8.2. Also, in assay [2] (setting [8]), the EC50 was determined as 20 nM and the “logEC50 GLP-2R” value was 7.7. In assay [3] (setting [9]), the EC50 worked out at 0.355 nM and the “pEC50 GIPR” value was determined as 9.5.
“HADGTFISDYSTILDKLAARDFINWLIQTKITK(C16) [Compound no. 58]”: in assay [3] (setting [6]), the EC50 came to 1.41 nM and the “PEC50 GIPR” value was 8.9.
In the case of “HADGTFISDYSTILDKLAARDFINWLIQTK(C16)ITK [Compound no. 57]”, in assay [1] (setting [4]), a half-maximal effect (EC50) was put at 100 nM and the “logEC50 GLP-1R” value was determined as 7.0. In addition, in assay [3] (setting [6]), the EC50 was found to be 12.6 nM and the “PEC50 GIPR” value is on record as 7.9.
As to “(C16-diacid)H-Aib-EGTFISDYST-Aib-LDNLAAKDFINWLIQTKITKNDWKHNITQ-OH [Compound no. 43]”, the “logEC50 GLP-1R” value in assay [1] (setting [4]) is “no activation”. In assay [2] (setting [5]), the midpoint of the response, the EC50, lay at 2.8 nM and the “logEC50 GLP-2R” value is 8.6.
For the substance “(C10-diacid)H-Aib-DGTFISDYST-Aib-LDNLAARDFINWLIQTKITK-OH [Compound no. 18]”, the “logEC50 GLP-1R” value in assay [1] (setting [4]) is recorded as “no activation”. Also, in assay [3] (setting [6]), the 50% effective concentration (EC50) was 4.22 nM and the “PEC50 GIPR” value is on record as 8.4.
As to “H-Aib-DGTFISDYS-K(γGlu-C16)-ILDNLAARDFINWLIQTKITK-OH [Compound no. 12]”, in assay [2] (setting [5]), the response was half-maximal at 0.9 nM (EC50) and the “logEC50 GLP-2R” value is on record as 9.1. For the same substance, in assay [3] (setting [6]), it took 0.251 nM to reach a half-maximal effect (EC50) and the “PEC50 GIPR” value is given as 9.6.
As to “(C16)HADGTFISDYSTILDAibLAARDFINWLIQTKITKNDWKHNITQ [Compound no. 16]”, in assay [2] (setting [5]), a half-maximal response (EC50) required 15.8 nM and the “logEC50 GLP-2R” value came out at 7.8. In assay [3] (setting [6]), a half-maximal effect (EC50) was put at 0.447 nM and the “PEC50 GIPR” value stood at 9.4.
Turning to “H-Aib-DGTFISDY-K(γGlu-C10)-T-Aib-LDNLAARDFINWLIQTKITD-OH [Compound no. 30]”, in assay [1] (setting [4]), the “logEC50 GLP-1R” value was “no activation”. In assay [2] (setting [5]), the EC50 was 2.8 nM and the “logEC50 GLP-2R” value is 8.6.
As to “HADGTFISDYSTILDNLAARDFINWLIQTKGKK(γGlu-C18-diacid) [Compound no. 60, reference compound]”, in assay [1] (setting [7]), a half-maximal response (EC50) required 4.47 nM and the “logEC50 GLP-1R” value is 8.4. In addition, in assay [2] (setting [8]), the midpoint of the response, the EC50, lay at 70.8 nM and the “logEC50 GLP-2R” value came out at 7.2.
Turning to “(C16-diacid)H-Aib-EGTFISDYST-Aib-LDALAARDFINWLIQTKITKNDWKHNITQ-OH [Compound no. 41]”, in assay [2] (setting [5]), the response was half-maximal at 1.8 nM (EC50) and the “logEC50 GLP-2R” value amounted to 8.8. Further, in assay [3] (setting [6]), it took 0.708 nM to reach a half-maximal effect (EC50) and the “PEC50 GIPR” value was determined as 9.2.
With “(C16)HADGTFISDYSTILDNLAAKDFINWLIQTKITK [Compound no. 45]”, in assay [1] (setting [4]), the “logEC50 GLP-1R” value is listed as “no activation”. Further, in assay [3] (setting [6]), the EC50 was 2.71 nM and the “PEC50 GIPR” value was determined as 8.6.
